Screening data deposited in PubChem by Broad Institute.
MITF act – increases MITF-driven TRPM1 promoter luciferase signal; SK-MEL-5 TRPM1-promoter luciferase, 24 h; % of positive control, neutral wells = 0; activation, % at 12.5 µM; actives 0.75% (n = 300,000);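 active = mean activation of at least 80% with every replicate also reaching 80%; inconclusive = mean reaches 80% but some replicate falls short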;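 also: 0% = neutral control wells and 100% = parthenolide positive control wells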
PglD inh – blocks C. jejuni PglD acetyltransferase activity; AID 602405; purified PglD enzyme, DTNB colorimetric CoA detection; inhibition, % at 12.5 µM; actives 0.098% (n = 360,000); in the data active = inhibition above about 16%, passing the limit was not always enough; inconclusive = no clear call, values can overlap the other calls
miR122 inh – blocks miR-122 activity in Huh7 sensor cells; Huh7 miR-122 Renilla luciferase sensor, 48 h; neutral wells = 0, positive control = 100; activation (reporter increase), % at 12.5 µM; actives 0.3% (n = 340,000);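 active = mean replicate activation score at least 90 and every replicate individually at or above 90; inconclusive = only one of the two criteria met; inactive = neither criterion met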;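 also: higher luciferase means less miR-122 activity so hits act as miR-122 inhibitors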
Yeast UUG start – modulators of start codon recognition fidelity in yeast; S. cerevisiae UUG-firefly luciferase reporter, luminescence/redox ratio; AID 602363; 350,000 tested, 0.13% active; activity score, % at 18.7 µM;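 active = replicate mean at a twofold rise or more, about +100% in these data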;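 also: firefly luciferase made from a UUG start codon reports start codon fidelity; reporter light over untreated wells divided by growth signal over untreated wells; some hits fall short of that in this replicate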
esBAF inh – inhibitors of esBAF chromatin remodeling in mouse ES cells; Bmi1-luciferase knock-in reporter, 24 h; 100% = twice the neutral-well signal; actives 2% (n = 350,000); AID 602393; reporter increase, % at 12.5 µM; in the data active = activation above about 40%; inconclusive = no clear call, values can overlap the other calls;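 also: 0% = median of the plate's neutral control wells and 100% = double that signal; a rise in the Bmi1 reporter signal indicates esBAF inhibition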
Wnt bcat act – Wnt/beta-catenin pathway activation; Wnt/beta-catenin reporter cell assay, activator, plate reader; activation, % at 9.35 µM; actives 1.2% (n = 300,000); AID 743398; in the data active = activation above about 30%, passing the limit was not always enough; inconclusive = no clear call, values can overlap the other calls;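 also: 0% = neutral control wells and 100% = positive control wells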
The depositor's hits bear a star; u = inconclusive; x = no result given; ! = not active in a repeat; [ ] = dose if it differs, or a comment. The list is not random: actives were taken first. Their share in the collection is about 2.8%.

The line under a structure holds: PglD inh | esBAF inh | miR122 inh | Wnt bcat act | MITF act | Yeast UUG start
1) CCC(=O)Nc1ccc2c(c1)OC[C@@H](C)N(C(=O)Cc1cccnc1)C[C@H](C)[C@H](OC)CN(C)C2=O
→ 0.4 | -1.4 | x | x | x | 9.9
2) N/C(=N\NC(=O)Nc1ccc(Cl)cc1)c1ccccn1
→ -5.4 | 47.4* | 0.3 | 25.7 | 49.3 | 0.3
3) C[C@@H]1CCCCO[C@H](CN(C)C(=O)c2ccccc2)[C@H](C)CN([C@@H](C)CO)C(=O)c2cc(NS(=O)(=O)c3cccs3)ccc2O1
→ -4.6 | -2.1 | -1.7[16.7 µM] | x | x | -0.6
4) Oc1ccc(Br)cc1/C=N/n1cnc2ccccc21
→ 5.8 | 53.4* | -7.4 | x | 27.7 | -6.2
5) Oc1ccc(Br)cc1/C=N/N1CCCCC1
→ 3.0 | x | 6.3 | 3.1 | 110.2* | -6.1
6) O=[N+]([O-])c1ccc(O)c(C=NN2CCCCC2)c1
→ -0.5 | x | x | -4.5 | x | -14.3
7) Oc1ccc(Br)cc1/C=N/N1CCN(Cc2ccccc2)CC1
→ -7.6 | 20.3 | -3.5 | x | 26.8 | -8.9
8) Clc1ccc(CN=C2Nc3ccccc3CS2)cc1
→ x | 55.6* | -20.8 | 63.6* | x | -17.1
9) CN(C)CC(=O)Nc1ccc2c(c1)[C@@H]1C[C@H](CC(=O)NC3CCCC3)O[C@H](CO)[C@@H]1O2
→ -1.7 | 1.8 | 1.3[16.7 µM] | x | x | -6.8
10) Cc1ccc(C(=O)/C=C/c2ccccc2[N+](=O)[O-])cc1
→ x | x | 0.8 | 49.6* | 43.6 | x

Next section.
The line under a structure holds: PglD inh | esBAF inh | miR122 inh | Wnt bcat act | MITF act | Yeast UUG start
11) COc1ccc(C(=O)/C=C/c2ccc(O)cc2)cc1
→ 2.0 | 11.5 | 1.6 | -0.1 | 38.0 | -15.7
12) O=C(/C=C/c1ccc(O)cc1)c1ccccc1
→ x | 58.8* | 8.1 | 37.7* | 69.2 | x
13) COc1ccc(C(=Cc2ccccc2[N+](=O)[O-])C(=O)O)cc1
→ x | 13.6 | 2.2 | 49.3* | 18.0 | x
14) Cc1cccc(C=CC(=O)c2ccccc2)c1
→ 1.8 | 71.0* | -11.3 | 7.2 | 49.3 | -13.7
15) C[C@H](CO)N1C[C@H](C)[C@H](CN(C)C(=O)Nc2ccccc2)OCCCC[C@H](C)Oc2ccc(NS(=O)(=O)c3cn(C)cn3)cc2C1=O
→ -0.6 | -0.6 | 5.7[16.7 µM] | x | x | -2.7
16) C[C@H]1CN([C@@H](C)CO)C(=O)c2cccc(NC(=O)NC3CCCCC3)c2O[C@@H]1CN(C)S(=O)(=O)c1ccccc1
→ 0.9 | 4.3 | 12.7[16.7 µM] | x | x | 12.6
17) CC1CCN(C(=O)CSCc2ccc(Cl)cc2)CC1
→ -5.9 | 49.4* | -2.9 | x | u | -0.4
18) COc1ccc(S(=O)(=O)Nc2ccc3c(c2)C(=O)N([C@H](C)CO)C[C@@H](C)[C@H](CN(C)C(=O)Cc2ccccc2)OCCCC[C@@H](C)O3)cc1
→ 0.1 | 11.2 | -10.0[16.7 µM] | x | x | -13.7
19) C[C@@H]1CCCCO[C@H](CN(C)C(=O)Cc2ccccc2)[C@H](C)CN([C@@H](C)CO)C(=O)c2cc(NC(=O)Nc3ccc4c(c3)OCO4)ccc2O1
→ 0.5 | 3.8 | -3.9[16.7 µM] | x | x | -19.5
20) CCOC(=O)c1ccc(-n2ccnc2)c(NC(=O)c2cccc(Br)c2)c1
→ 1.9 | -11.9 | 128.3* | 1.0 | -9.5 | -19.9

Next section:
The line under a structure holds: PglD inh | esBAF inh | miR122 inh | Wnt bcat act | MITF act | Yeast UUG start
21) CCOC(=O)c1ccc(-n2ccnc2)c(NC(=O)c2ccc(C(C)(C)C)cc2)c1
→ x | -2.2 | -5.8 | 15.5 | -17.4 | x
22) O=C(NCCN1C(=O)C2C3C=CC(C3)C2C1=O)Nc1ccc(Br)cc1 (stereo unspecified)
→ -6.6 | 62.5* | 0.4 | 37.1* | 67.0 | -4.9
23) O=C(NCCN1C(=O)C2C3C=CC(C3)C2C1=O)Nc1cccnc1 (stereo unspecified)
→ 2.8 | 3.4 | -1.9 | -0.6 | -9.6 | 0.3
24) O=S(=O)(Nc1cccc2ncccc12)c1cccs1
→ -3.2 | 11.8 | 234.4* | x | x | -36.6
25) Cc1c(NS(=O)(=O)c2cccs2)cccc1-c1nc2cccnc2s1
→ x | x | x | 8.2 | 3.1 | x
26) Cc1cc(-c2nc3cccnc3s2)ccc1NS(=O)(=O)c1cccs1
→ -0.8 | 44.9* | x | 25.0 | x | -18.4
27) C[C@@H](NC(=O)C[C@@H]1CC[C@H]2[C@H](COc3ccc(NS(=O)(=O)c4ccc(Cl)cc4)cc3C(=O)N2C)O1)c1ccccc1
→ 1.1 | 15.0 | -16.7[16.7 µM] | x | x | x
28) C[C@@H]1CN([C@H](C)CO)C(=O)c2cc(C#CC3(O)CCCC3)cnc2O[C@H]1CN(C)C
→ 9.1 | 0.1 | -5.5[16.7 µM] | x | x | 1.8
29) CCOC(=O)c1c(C)oc2c1c1c(c3ccccc32)OCN(Cc2cccnc2)C1
→ 17.3 | 73.8* | 2.3 | x | 26.7 | -17.0
30) CCOC(=O)c1c(C)oc2c1c(C(c1cccnc1)N1CCOCC1)c(O)c1ccccc12 (stereo unspecified)
→ x | 68.6* | 2.5 | x | 44.5 | x

Additional structures follow:
The line under a structure holds: PglD inh | esBAF inh | miR122 inh | Wnt bcat act | MITF act | Yeast UUG start
31) CCOC(=O)c1c(C)oc2c1c1c(c3ccccc32)OCN(CCCC(=O)O)C1
→ 1.6 | 50.5* | 3.1 | 48.0* | 65.8 | -21.2
32) C[C@@H]1CCCCO[C@H](CN(C)Cc2ccncc2)[C@H](C)CN([C@@H](C)CO)C(=O)c2cc(NS(=O)(=O)c3ccccc3)ccc2O1
→ 1.5 | 5.0 | 0.7[16.7 µM] | x | x | 6.9
33) O=C(NCC(=O)N1CCN(c2ccccc2)CC1)c1ccc(Br)o1
→ 2.8 | x | x | -1.0 | 4.1 | -4.1
34) CC1CCN(C(=O)CNC(=O)c2ccc(Br)o2)CC1
→ 10.0 | 26.9 | x | 37.6* | 71.2 | -25.2
35) CSc1ncccc1C(=O)Nc1ccncc1
→ -2.8 | -1.2 | x | -0.6 | 13.0 | -12.0
36) CCOc1ccc2nc(NC(=O)Nc3ccccc3)sc2c1
→ x | x | -3.8 | x | 63.5 | x
37) CSc1ncccc1C(=O)Nc1nc2ccc(Oc3ccccc3)cc2s1
→ x | 45.1* | -7.1 | 24.0 | 61.7 | x
38) COc1ccc2nc(NC(=O)c3ccccc3C(=O)O)sc2c1
→ 3.3 | 8.6 | x | 1.4 | 1.5 | -8.4
39) COc1ccc(NC(=O)c2cccnc2SC)cc1OC
→ -2.4 | 0.6 | 1.7 | 35.2* | 14.9 | 5.5
40) COc1ccc2nc(NC(=O)Nc3ccccc3)sc2c1
→ -5.5 | -29.0 | 5.9 | 56.3*! | 68.0 | -24.8

In another format: entries from further up.
35	CSc1ncccc1C(=O)Nc1ccncc1
36	CCOc1ccc2nc(NC(=O)Nc3ccccc3)sc2c1

assay / compound | 35 | 36
PglD inh | -2.8 | x
esBAF inh | -1.2 | x
miR122 inh | x | -3.8
Wnt bcat act | -0.6 | x
MITF act | 13.0 | 63.5
Yeast UUG start | -12.0 | x

Next section
The line under a structure holds: PglD inh | esBAF inh | miR122 inh | Wnt bcat act | MITF act | Yeast UUG start
41) COc1ccc(Nc2nc3ccc(OC)cc3s2)cc1
→ x | x | x | 28.3 | 90.6* | x
42) COc1ccc(CN(C)C[C@@H]2Oc3ccc(NC(=O)CCC(F)(F)F)cc3C(=O)N([C@@H](C)CO)C[C@H]2C)cc1
→ -4.8 | -0.2 | -4.1[16.7 µM] | x | x | 2.6
43) C[C@H]1CCCCO[C@@H](CN(C)C(=O)C2CCCCC2)[C@@H](C)CN([C@@H](C)CO)C(=O)c2cc(NC(=O)NC3CCCCC3)ccc2O1
→ 1.7 | -3.8 | -9.2[16.7 µM] | x | x | 1.7
44) CCCNC(=O)[C@@H]1[C@@H](CO)[C@@H]2Cn3c(ccc(-c4ccccc4OC)c3=O)[C@H]1N2C(=O)NCCC
→ 0.7 | 2.5 | 2.1[16.7 µM] | x | x | 0.6
45) CNC(=O)C[C@H]1CC[C@@H]2[C@H](COc3ccc(NC(=O)c4ccc(OC)cc4)cc3C(=O)N2C)O1
→ -0.6 | 0.4 | -2.0[16.7 µM] | x | x | 7.4
46) COc1ccc2nc(Nc3nc(C)c(C(C)=O)s3)sc2c1
→ -5.6 | 37.8 | -6.6 | 55.9* | 69.2 | -9.3
47) CCC(=O)N1CCCCN2[C@H](C1)[C@H](c1ccc(C#Cc3ccccc3)cc1)[C@@H]2CO
→ 0.3 | x | -0.5[16.7 µM] | x | x | -3.6
48) CSCC(=O)N1CCC(n2nccc2NC(=O)c2ccc3c(c2)OCO3)CC1
→ -0.8 | 58.3* | -7.7 | 13.2 | 30.2 | 0.8

One compound at a time, as listed above. Order of screens: PglD inh	esBAF inh	miR122 inh	Wnt bcat act	MITF act	Yeast UUG start
COc1ccc2nc(Nc3nc(C)c(C(C)=O)s3)sc2c1 across the screens: -5.6	37.8	-6.6	55.9*	69.2	-9.3
CSc1ncccc1C(=O)Nc1nc2ccc(Oc3ccccc3)cc2s1 across the screens: x	45.1*	-7.1	24.0	61.7	x
CCC(=O)Nc1ccc2c(c1)OC[C@@H](C)N(C(=O)Cc1cccnc1)C[C@H](C)[C@H](OC)CN(C)C2=O across the screens: 0.4	-1.4	x	x	x	9.9
